The text below walks through data of patent US6448405B1, “Steroid receptor modulator compounds and methods” (Ligand Pharmaceuticals Incorporated, priority 1994, dated 2002).

By UniProt entry, the sequences of proteins in these tests, tags left out. Where a name states a change or a piece, a line headed by the entry shows the natural chain unless it says otherwise.
UniProt P10275: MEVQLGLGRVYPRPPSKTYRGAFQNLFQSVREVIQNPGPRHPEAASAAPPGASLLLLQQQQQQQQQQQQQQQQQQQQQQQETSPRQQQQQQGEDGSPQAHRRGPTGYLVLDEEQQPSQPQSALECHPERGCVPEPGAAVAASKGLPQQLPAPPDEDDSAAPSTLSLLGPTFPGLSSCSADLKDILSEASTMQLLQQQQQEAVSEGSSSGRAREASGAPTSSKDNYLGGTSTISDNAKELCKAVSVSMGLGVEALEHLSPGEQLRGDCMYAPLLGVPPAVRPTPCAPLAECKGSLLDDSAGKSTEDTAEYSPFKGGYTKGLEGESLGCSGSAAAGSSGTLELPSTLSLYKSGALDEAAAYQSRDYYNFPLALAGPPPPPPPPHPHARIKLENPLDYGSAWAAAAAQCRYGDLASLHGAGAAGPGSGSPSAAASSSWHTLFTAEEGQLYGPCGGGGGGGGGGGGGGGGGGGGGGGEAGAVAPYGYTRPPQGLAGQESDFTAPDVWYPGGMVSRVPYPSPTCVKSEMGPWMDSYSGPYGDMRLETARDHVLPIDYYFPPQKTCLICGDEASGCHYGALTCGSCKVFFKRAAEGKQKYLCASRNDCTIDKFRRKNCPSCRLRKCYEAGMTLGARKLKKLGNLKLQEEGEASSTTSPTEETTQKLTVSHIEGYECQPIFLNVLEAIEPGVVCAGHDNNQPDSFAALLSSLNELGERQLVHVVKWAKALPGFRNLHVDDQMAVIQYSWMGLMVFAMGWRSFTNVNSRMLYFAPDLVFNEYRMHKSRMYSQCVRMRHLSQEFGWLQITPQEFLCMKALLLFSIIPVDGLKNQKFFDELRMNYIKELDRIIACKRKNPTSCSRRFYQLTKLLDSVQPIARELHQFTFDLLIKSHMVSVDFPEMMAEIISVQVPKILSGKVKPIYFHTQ

For experiment [1], the target named is T1, human progesterone receptor A form (PR-A) (Homo sapiens, UniProt P06401).
T1 sequence (P06401 1-769 isoform P06401-2): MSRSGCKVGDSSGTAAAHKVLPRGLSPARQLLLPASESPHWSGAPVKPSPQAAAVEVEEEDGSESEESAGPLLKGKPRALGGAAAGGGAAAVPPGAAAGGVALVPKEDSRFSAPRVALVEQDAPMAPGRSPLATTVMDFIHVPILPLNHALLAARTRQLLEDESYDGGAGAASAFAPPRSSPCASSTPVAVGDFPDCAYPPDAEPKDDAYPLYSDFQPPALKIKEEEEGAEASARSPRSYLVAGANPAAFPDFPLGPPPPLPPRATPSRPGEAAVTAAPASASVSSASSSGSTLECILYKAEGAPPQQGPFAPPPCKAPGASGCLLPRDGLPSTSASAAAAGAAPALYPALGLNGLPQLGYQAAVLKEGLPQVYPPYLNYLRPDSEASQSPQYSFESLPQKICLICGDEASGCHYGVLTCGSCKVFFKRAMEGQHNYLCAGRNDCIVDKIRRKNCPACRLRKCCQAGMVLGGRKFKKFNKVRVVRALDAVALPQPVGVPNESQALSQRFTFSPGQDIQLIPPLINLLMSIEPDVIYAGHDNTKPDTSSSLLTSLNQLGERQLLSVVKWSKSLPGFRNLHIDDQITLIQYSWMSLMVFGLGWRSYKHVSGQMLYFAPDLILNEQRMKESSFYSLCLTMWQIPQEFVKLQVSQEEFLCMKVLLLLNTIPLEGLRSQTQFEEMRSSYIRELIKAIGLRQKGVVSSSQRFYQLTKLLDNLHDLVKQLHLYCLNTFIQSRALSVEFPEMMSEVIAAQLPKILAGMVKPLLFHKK
The experiment can be described thus: PR binding assay, baculovirus extract, [3H] progesterone. The note with it: competition with [3H] progesterone, 4° C., 16 hours.

In experiment [2] the target is T2, human androgen receptor (AR) (Homo sapiens, UniProt P10275).
T2 construct: expressed in transfected cells; host or cells: CV-1 cells, transient transfection
The experiment in a line: Co-transfection assay, AR agonist and antagonist activity, CV-1 cells (pRShAR). The class given is cell-based. The note with it: for EC50: agonist mode, read-out: AR Agonist CV-1 Cells Potency; for IC50: antagonist mode, read-out: AR Antagonist CV-1 Cells Potency.

The next experiment has as its target human AR (Homo sapiens, UniProt P10275). The experiment can be described thus: AR whole cell binding assay, transfected COS-1 cells, 3H-DHT. The following applies: read-out: AR Binding Ki; Table 2; competition with 1 nM 3H-DHT, COS-1 whole cells.
For a further experiment, the target named is T3, human PR-B (Homo sapiens, UniProt P06401).
T3 sequence (P06401 1-933): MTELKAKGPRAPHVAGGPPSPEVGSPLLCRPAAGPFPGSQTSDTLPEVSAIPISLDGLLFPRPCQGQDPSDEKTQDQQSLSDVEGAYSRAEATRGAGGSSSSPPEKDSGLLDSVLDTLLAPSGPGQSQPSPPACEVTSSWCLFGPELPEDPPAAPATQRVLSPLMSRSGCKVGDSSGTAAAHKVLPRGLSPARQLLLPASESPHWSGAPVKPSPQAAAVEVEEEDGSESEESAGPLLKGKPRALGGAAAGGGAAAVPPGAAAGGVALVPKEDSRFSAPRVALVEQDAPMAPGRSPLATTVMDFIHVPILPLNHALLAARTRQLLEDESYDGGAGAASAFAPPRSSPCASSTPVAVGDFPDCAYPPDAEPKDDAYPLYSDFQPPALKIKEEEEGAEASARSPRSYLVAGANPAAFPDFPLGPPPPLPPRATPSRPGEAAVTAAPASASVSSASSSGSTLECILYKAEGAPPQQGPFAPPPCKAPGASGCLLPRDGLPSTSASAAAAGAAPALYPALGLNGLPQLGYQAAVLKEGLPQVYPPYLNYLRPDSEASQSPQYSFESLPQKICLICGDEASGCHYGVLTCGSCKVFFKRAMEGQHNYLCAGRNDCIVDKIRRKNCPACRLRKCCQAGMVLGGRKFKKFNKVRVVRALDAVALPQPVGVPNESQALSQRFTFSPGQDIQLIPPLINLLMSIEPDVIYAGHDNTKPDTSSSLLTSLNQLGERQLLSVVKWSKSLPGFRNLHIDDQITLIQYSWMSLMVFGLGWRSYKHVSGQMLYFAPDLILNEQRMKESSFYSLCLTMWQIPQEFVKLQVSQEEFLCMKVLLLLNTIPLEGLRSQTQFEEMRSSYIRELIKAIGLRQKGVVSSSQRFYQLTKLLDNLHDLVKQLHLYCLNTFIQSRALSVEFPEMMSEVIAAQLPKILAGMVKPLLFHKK
The experiment can be described thus: Co-transfection assay, PR agonist and antagonist activity, CV-1 cells.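 Note: luciferase reporter driven by a hormone response element, co-transfected with human PR-B into CV-1 monkey kidney cells, agonists raise and antagonists lower the reporter signal.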 The following applies: read-out: PR Agonist CV-1 Cells Potency, agonist mode.

Where two headings read alike, the source gives them in different places. Bounds are passed on as bounds.

In experiment [1], “1,2-Dihydro-2,2.4-trimethylindeno[2,1-f]quinoline [Compound 116]” showed a Ki of 38 nM.

With “(R/S)-4-Ethyl-1,2,3,4-tetrahydro-1-methyl-8-pyranono[5,6-g]quinoline [Compound 416]”, the EC50 in experiment [2] (Table 2) and in experiment [2] was 340 nM each time. The IC50 in experiment [2] (Table 2) and in experiment [2] (DHT at its EC50) was 5010 nM each time. At human AR, the Ki came out at 388 nM.

For “8-Bromo-12-dihydro-2,2,4-trimethylindeno[1,2-]quinoline [Compound 117]”, the EC50 at human PR-B was above 10000 nM. This substance also had a Ki in experiment [1] above 10000 nM.
